Source: ChEMBL document CHEMBL1128310, “Antitumor imidazotetrazines. 32. Synthesis of novel imidazotetrazinones and related bicyclic heterocycles to probe the mode of action of the antitumor drug temozolomide” (J Med Chem, 1995)

Tested on: GM892A cell line
Assay: In vitro cytotoxicity against human lymphoblastoid cell (GM892 A)

CN(N=O)C(=N)N[N+](=O)[O-]
IC50: 200 nM
